For this test, the species on record is Oryctolagus cuniculus. Briefly: Vasorelaxant effects in circumferential strips of potassium-depolarized rabbit aorta. (IC50 in rabbit aorta strips contracted with KCl(95% confidence interval)). The format is functional, organism-based. The method in brief: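 Circumferential strips of rabbit thoracic aorta, contracted by depolarization with 100 mM KCl, then exposed to various concentrations of compound.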

In the case of `COc1ccc([C@@H]2Cc3cc(OC)ccc3N(CCN(C)C)C(=O)[C@@H]2OC(C)=O)cc1.Cl`, the midpoint of inhibition, the IC50, lay at 1900 nM.

The IC50 is the concentration at which inhibition is half-maximal.
